Data as given in article PMC3142620 (Chemistry & biology, 2011).

Target: Raf-1 (Homo sapiens, UniProt P04049)

CN(C)CCOc1ccc(-c2nc(-c3ccncc3)c(-c3ccc4c(c3)CC/C4=N\O)[nH]2)cc1 [SB590885]
Raf-1 probe-labeling after live cell treatment: significant increases
